# pIC50: −log10 of the molar value. “And” between values parts separate entries of the source, which are not always exact repeats. Equal values may be shown once. Read-outs that look alike come from different tables or passages of the source.
# By UniProt entry, the sequences of proteins in these tests, tags left out. Where a name states a change or a piece, a line headed by the entry shows the natural chain unless it says otherwise. Residues count along the entry.
# UniProt P10635, whole entry: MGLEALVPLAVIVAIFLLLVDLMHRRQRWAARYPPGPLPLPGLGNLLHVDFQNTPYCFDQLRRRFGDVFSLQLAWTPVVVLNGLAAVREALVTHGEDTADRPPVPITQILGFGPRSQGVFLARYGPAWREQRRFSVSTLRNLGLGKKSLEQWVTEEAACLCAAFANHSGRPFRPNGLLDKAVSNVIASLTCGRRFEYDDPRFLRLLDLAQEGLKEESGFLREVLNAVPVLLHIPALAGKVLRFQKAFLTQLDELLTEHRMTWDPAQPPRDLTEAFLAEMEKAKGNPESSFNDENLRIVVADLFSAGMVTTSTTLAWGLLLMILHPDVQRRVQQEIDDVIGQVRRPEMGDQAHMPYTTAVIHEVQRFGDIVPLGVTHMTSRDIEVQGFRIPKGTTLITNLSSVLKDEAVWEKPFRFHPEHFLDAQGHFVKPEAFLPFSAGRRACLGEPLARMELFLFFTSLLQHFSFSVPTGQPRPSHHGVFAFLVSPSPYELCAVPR
# UniProt P20813: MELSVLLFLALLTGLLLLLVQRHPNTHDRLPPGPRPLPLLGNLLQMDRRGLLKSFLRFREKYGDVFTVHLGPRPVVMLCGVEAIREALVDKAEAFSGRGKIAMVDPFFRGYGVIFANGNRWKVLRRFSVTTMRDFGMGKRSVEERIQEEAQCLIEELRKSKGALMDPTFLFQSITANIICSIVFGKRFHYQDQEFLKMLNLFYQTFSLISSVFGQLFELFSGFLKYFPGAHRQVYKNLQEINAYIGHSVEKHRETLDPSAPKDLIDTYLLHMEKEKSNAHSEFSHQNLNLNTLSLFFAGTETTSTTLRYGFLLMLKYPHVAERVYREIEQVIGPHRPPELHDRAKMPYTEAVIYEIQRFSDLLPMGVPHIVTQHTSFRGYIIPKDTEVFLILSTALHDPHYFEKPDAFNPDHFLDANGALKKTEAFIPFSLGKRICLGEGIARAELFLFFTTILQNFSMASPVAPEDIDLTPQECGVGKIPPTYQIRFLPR
# UniProt P08684, 2-503: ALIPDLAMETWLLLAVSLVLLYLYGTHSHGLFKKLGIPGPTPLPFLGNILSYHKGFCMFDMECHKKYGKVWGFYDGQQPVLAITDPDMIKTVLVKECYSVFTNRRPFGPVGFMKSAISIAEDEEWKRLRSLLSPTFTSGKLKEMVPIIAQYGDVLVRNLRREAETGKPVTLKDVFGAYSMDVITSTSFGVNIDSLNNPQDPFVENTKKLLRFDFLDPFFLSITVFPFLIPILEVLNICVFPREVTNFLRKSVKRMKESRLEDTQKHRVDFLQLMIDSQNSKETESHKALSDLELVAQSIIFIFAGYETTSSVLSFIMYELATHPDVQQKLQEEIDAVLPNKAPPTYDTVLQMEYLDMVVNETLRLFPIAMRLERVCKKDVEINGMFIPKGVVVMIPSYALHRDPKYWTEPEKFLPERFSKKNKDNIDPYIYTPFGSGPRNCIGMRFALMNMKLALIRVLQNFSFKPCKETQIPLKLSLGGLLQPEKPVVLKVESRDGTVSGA
# UniProt P11712, whole entry: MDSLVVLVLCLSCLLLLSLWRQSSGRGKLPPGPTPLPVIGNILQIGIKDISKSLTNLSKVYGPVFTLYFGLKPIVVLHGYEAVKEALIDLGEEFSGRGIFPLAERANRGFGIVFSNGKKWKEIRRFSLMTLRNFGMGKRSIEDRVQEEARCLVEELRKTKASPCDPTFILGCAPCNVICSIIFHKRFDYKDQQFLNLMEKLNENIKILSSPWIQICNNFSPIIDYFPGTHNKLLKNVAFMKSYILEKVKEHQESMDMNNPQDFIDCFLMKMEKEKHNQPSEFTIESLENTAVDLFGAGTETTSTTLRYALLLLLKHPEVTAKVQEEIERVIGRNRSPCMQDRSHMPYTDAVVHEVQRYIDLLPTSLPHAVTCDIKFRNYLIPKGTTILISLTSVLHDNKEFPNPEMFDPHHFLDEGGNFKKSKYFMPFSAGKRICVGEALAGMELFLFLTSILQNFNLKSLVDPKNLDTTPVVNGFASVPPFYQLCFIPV
# Legend:
# CYP2D6 = CYP2D6 (Homo sapiens, UniProt P10635); experiment: CYP2D6 inhibition in HLMs (dextromethorphan)
# UGT1A9 = target: T1, UGT1A9 (Homo sapiens, UniProt O60656); experiment: UGT1A9 inhibition in HLMs (mycophenolic acid); type: in vitro ADME; conditions: average in triplicate, read-out: IC50, UGT 1A9
# T1 construct: pooled HLMs (0.25 mg/mL); tissue XenoTech H2630; host or cells: pooled human liver microsomes, mixed gender
# T1 sequence (O60656 26-530): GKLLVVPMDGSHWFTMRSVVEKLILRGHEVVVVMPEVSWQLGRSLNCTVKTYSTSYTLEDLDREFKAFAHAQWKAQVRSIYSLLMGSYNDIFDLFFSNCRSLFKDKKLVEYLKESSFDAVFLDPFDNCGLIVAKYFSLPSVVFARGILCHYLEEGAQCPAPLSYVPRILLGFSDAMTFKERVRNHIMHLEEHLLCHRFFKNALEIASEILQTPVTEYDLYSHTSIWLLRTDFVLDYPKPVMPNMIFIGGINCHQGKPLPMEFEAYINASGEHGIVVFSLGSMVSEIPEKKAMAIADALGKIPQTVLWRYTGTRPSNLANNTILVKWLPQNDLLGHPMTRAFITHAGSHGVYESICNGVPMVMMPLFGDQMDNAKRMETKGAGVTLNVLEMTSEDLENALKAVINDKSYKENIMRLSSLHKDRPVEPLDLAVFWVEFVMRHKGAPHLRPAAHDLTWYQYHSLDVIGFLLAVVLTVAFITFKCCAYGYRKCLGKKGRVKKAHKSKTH
# Protocol: (§1) The inhibitory potential of six lignans on six UGT activities was evaluated using the previously developed cocktail method with slight modifications. […] These substrates are known to be selective for each UGT isoforms.
# CYP2B6 = target: T2, CYP2B6 (Homo sapiens, UniProt P20813); experiment: CYP2B6 inhibition in HLMs (bupropion); type: in vitro ADME
# T2 construct: pooled HLMs (0.25 mg/mL); tissue XenoTech H2630; host or cells: pooled human liver microsomes, mixed gender
# Protocol: Lignans were first dissolved in methanol. […] All microsomal incubations were performed in triplicate.
# UGT1A3 = target: T3, UGT1A3 (Homo sapiens, UniProt P35503); experiment: UGT1A3 inhibition in HLMs (chenodeoxycholic acid); type: in vitro ADME; conditions: average in triplicate, read-out: IC50, UGT 1A3
# T3 construct: pooled HLMs (0.25 mg/mL); tissue XenoTech H2630; host or cells: pooled human liver microsomes, mixed gender
# T3 sequence (P35503 29-534): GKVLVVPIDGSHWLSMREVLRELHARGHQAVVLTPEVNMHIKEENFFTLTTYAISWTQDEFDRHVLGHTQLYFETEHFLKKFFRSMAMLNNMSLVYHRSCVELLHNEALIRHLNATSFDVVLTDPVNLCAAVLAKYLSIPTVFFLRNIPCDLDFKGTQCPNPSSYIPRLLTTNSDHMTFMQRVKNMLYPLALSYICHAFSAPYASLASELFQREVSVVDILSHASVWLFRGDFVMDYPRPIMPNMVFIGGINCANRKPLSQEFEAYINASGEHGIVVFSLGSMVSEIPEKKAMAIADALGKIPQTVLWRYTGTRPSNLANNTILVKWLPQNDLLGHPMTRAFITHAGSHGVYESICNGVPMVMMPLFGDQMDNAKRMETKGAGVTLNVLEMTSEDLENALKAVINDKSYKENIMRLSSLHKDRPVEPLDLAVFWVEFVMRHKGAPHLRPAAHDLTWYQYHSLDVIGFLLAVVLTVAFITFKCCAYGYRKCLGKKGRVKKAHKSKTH
# Protocol: as §1
# CYP3A = CYP3A (Homo sapiens, UniProt P08684); experiment: CYP3A inhibition in HLMs (midazolam, nifedipine, testosterone); conditions: for IC50 Shift, CYP3A (midazolam) / IC50 Shift, CYP3A (nifedipine) / IC50 Shift, CYP3A (testosterone): RI/TDI fold shift;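 on all read-outs here: pooled HLMs at 0.25 mg/mL in phosphate buffer, inhibitor across 0–50 µM, 10 min reaction at 37 °C after preincubation, probe metabolite quantified by LC-MS/MS, triplicate incubations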
# UGT1A4 = target: T4, UGT1A4 (Homo sapiens, UniProt P22310); experiment: UGT1A4 inhibition in HLMs (trifluoperazine); type: in vitro ADME; conditions: average in triplicate, read-out: IC50, UGT 1A4
# T4 construct: pooled HLMs (0.25 mg/mL); tissue XenoTech H2630; host or cells: pooled human liver microsomes, mixed gender
# T4 sequence (P22310 29-534): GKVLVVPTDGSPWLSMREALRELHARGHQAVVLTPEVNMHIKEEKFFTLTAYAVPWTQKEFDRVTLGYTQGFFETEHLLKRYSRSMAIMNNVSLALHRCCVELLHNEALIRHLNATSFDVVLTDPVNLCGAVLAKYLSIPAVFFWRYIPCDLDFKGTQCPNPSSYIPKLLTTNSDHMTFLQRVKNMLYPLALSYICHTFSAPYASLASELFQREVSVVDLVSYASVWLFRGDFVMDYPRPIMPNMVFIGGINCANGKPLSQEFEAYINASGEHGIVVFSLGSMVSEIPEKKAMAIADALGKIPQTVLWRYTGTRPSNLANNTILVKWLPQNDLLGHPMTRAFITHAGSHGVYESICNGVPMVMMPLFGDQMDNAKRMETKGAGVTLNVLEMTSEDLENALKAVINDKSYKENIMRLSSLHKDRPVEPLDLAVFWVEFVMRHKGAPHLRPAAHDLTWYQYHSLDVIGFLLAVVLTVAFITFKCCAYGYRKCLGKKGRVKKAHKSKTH
# Protocol: as §1
# UGT2B7 = target: T5, UGT2B7 (Homo sapiens, UniProt P16662); experiment: UGT2B7 inhibition in HLMs (naloxone); type: in vitro ADME; conditions: average in triplicate, read-out: IC50, UGT 2B6 (so in the source)
# T5 construct: pooled HLMs (0.25 mg/mL); tissue XenoTech H2630; host or cells: pooled human liver microsomes, mixed gender
# T5 sequence (P16662 24-529): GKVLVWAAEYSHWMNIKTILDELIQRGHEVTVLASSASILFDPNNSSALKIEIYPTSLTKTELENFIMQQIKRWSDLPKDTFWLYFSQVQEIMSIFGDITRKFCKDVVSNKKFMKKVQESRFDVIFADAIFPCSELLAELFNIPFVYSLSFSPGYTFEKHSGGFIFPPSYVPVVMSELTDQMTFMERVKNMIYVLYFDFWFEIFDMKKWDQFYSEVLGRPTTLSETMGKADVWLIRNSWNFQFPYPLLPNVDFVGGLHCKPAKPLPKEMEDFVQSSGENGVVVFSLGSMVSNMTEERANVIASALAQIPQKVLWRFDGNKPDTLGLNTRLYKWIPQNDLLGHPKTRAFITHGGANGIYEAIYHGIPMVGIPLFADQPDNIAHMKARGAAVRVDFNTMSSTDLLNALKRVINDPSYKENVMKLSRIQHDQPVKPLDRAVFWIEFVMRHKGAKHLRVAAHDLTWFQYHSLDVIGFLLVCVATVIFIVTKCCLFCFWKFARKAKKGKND
# Protocol: as §1
# CYP2C9 = CYP2C9 (Homo sapiens, UniProt P11712); experiment: CYP2C9 inhibition in HLMs (diclofenac); conditions: for IC50 Shift, CYP2C9: RI/TDI fold shift
# [1] = read-out: IC50 RI, CYP2D6, reversible inhibition
# [2] = read-out: IC50 TDI, CYP2D6, 30 min pre-incubation with NADPH generating system
# [3] = 30 min pre-incubation with NADPH generating system, read-out: IC50 TDI, CYP2B6
# [4] = reversible inhibition, read-out: IC50 RI, CYP2B6
# [5] = read-out: IC50, CYP3A activity (across probe substrates), reversible inhibition, probe substrate not singled out
# [6] = read-out: IC50 RI, CYP3A (midazolam), midazolam, reversible inhibition
# [7] = read-out: IC50 RI, CYP3A (nifedipine), nifedipine, reversible inhibition
# [8] = read-out: IC50 RI, CYP3A (testosterone), testosterone, reversible inhibition
# [9] = read-out: IC50 TDI, CYP3A (midazolam), midazolam, 30 min pre-incubation with NADPH generating system
# [10] = read-out: IC50 TDI, CYP3A (nifedipine), nifedipine, 30 min pre-incubation with NADPH generating system
# [11] = read-out: IC50 TDI, CYP3A (testosterone), testosterone, 30 min pre-incubation with NADPH generating system
# [12] = read-out: IC50 RI, CYP2C9, reversible inhibition
# [13] = read-out: IC50 TDI, CYP2C9, 30 min pre-incubation with NADPH generating system
Substance,pIC50 (CYP2D6; [1]),pIC50 (CYP2D6; [2]),pIC50 (UGT1A9),pIC50 (CYP2B6; [3]),pIC50 (CYP2B6; [4]),pIC50 (UGT1A3),"IC50 Shift, CYP3A (midazolam) (CYP3A)","IC50 Shift, CYP3A (nifedipine) (CYP3A)",pIC50 (CYP3A; [5]),pIC50 (CYP3A; [6]),pIC50 (CYP3A; [7]),pIC50 (CYP3A; [8]),pIC50 (CYP3A; [9]),pIC50 (CYP3A; [10]),pIC50 (CYP3A; [11]),"IC50 Shift, CYP3A (testosterone) (CYP3A)",pIC50 (UGT1A4),pIC50 (UGT2B7),"IC50 Shift, CYP2C9 (CYP2C9)",pIC50 (CYP2C9; [12]),also measured
gomisin A,4.34,< 4.30,< 4.30,< 4.30,< 4.30,< 4.30,2.6,2.3,5.35 to 5.89,5.51,5.74,5.64,5.92,6.11,6.11,3.0,< 4.30,< 4.30,> 1.8 and 2.1,4.34,"pIC50 (CYP3A; read-out: IC50, time-dependent inhibition of CYP3A (across probe substrates), 30 min NADPH pre-incubation, probe substrate not singled out): > 5.30; pIC50 (CYP2C9; [13]): 4.66"
gomisin B,4.34,< 4.30,< 4.30,< 4.30,4.37,4.78,3.5,3.2,6.38 to 6.55,6.38,6.49,6.55 to 6.72 and 6.55,6.92,7.00,7.05,3.1,< 4.30,< 4.30,time-independent inhibition,4.34,pIC50 (CYP2C9; [13]): < 4.30
